The results in this text go back to US7745424B2, “Alkane diol derivatives as therapeutic agents for the treatment of bone conditions” (The Univeristy Court of the University of Aberdeen, priority 2001, dated 2010).

The experiment has as its system macrophage cell line J774. Kind of experiment: Alamar Blue macrophage J774 viability assay. To be noted: read-out: IC50 (μM) Alamar Blue, 72 hours. On the technique in general: Resazurin is reduced to fluorescent resorufin, in cell work by metabolically active cells.

One may read the IC50 as the point on the concentration scale where inhibition reaches its midpoint. As to `O=C(OCCCCO[N+](=O)[O-])c1ccc(-c2ccc([N+](=O)[O-])cc2[N+](=O)[O-])c([N+](=O)[O-])c1`, the IC50 turned out to be 35 µM.
